The results in this text go back to patent US6921776B1, “Compound” (Sterix Limited, priority 1996, dated 2005).

By UniProt entry, the sequences of proteins in these tests, tags left out. Residues count along the entry.
UniProt P08842, 22-583: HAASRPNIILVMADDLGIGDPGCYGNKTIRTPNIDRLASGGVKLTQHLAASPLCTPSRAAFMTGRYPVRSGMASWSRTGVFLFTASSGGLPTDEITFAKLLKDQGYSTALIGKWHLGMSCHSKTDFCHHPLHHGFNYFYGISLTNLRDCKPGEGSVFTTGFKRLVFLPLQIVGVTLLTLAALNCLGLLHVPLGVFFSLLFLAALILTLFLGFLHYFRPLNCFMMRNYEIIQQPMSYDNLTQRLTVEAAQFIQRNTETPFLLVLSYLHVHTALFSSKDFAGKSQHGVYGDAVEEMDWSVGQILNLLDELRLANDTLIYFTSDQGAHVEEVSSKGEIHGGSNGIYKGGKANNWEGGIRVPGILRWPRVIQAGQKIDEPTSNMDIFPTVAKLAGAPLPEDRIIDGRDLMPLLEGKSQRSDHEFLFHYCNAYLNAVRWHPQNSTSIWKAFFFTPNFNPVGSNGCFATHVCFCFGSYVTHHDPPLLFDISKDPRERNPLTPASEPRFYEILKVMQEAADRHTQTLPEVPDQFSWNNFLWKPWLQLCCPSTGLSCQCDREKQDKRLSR

The target in data set [1] is T1, oestrone sulphatase (E1-STS) (Homo sapiens, UniProt P08842). It counts as biochemical.
Data set [2] concerns the target T1, oestrone sulphatase (E1-STS).

Read-outs that look alike come from different tables or passages of the source.

Turning to `NS(=O)(=O)Oc1ccc2c3c(c(=O)oc2c1)CCCCC3` [compound 17, 6-Oxo-8,9,10,11-tetrahydro-7H-cyclohepta-[c][1]benzopyran-3-O-sulphamate], in data set [1] (double-reciprocal plot, placental microsomes, read-out: Apparent Ki for E1-STS inactivation), the KI (inactivation) worked out at 40 nM. The “Overall rate constant for the decrease in activity” value in data set [1] (method of Kitz and Wilson) was 3450 s⁻¹. Moreover, the “Mode of E1-STS inhibition” value in data set [1] (placental microsomes) was “biphasic”; in data set [1] (placental microsomes, listed as 667COUMATE), “time- and concentration-dependent manner”. Also, the “% Inhibition ± S.D. of E1-STS activity in placental microsomes” value is listed as 48 ± 2% in data set [2] (0.01 μM (Table 2)), 91 ± 1% in data set [2] (0.1 μM (Table 2)) and over 99% in data set [2] (1 μM (Table 2)). Also, the “Inhibition of E1-STS in placental microsomes” value in data set [2] (1 μM) is “almost complete inhibition”.
